# IL2 activator: IL-2 activation; IL-2 activation reporter assay, cell-based qHTS; stimulated with anti-CD3/CD4/CD28 beads; in transgenic mouse T cells; activation, % (series mostly up to about 46 µM); AID 652025; 0.065% of 360,000 active; in the data active means activation above about 50%; inconclusive means mostly about 30% to 49%
#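 Readout: EGFP and DsRed signals by fluorescent plate cytometry. Unstimulated transgenic mouse T cells received compound 60 min before antibody-bead stimulation, then incubated 18 h at 37 degrees C.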
# miR-21 FLuc: miR-21 reporter, rising signal. HeLa miR-21 FLuc reporter, luciferase, 48 h. Potency, µM (highest dose often 38.3 µM). 340,000 tested, under 10 active. AID 2288; active = well fitted rising curve with a large enough effect; inconclusive = small, poorly fitted or top-dose-only effect; inactive = no such curve, though single readings can be large or run the other way;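 further: miR-21 action dims this reporter so a rising signal means less miR-21 action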
#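 Compounds were titrated across several concentrations (up to approximately 40 uM) and incubated 48 hours with HeLa miR-21-FLuc reporter cells (miR-21 target sequence downstream of FLuc, endogenous miR-21). Readout was firefly luciferase luminescence after lytic detection reagent.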
# RXFP1 ag: activates the human relaxin receptor RXFP1; 0.3% of 370,000 active; Potency, µM (top dose mostly 57.5 µM), actives largely listed as activators; Q9HBX9; HEK293T-RXFP1 cAMP TR-FRET, 30 min; response scale: percent of porcine relaxin response, buffer zero; further: nearly all actives have a fitted effect of over 60% in size
#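 HEK293T cells stably expressing RXFP1 were pretreated with the PDE4 inhibitor Ro 20174, exposed to compounds for 30 min at 37C, lysed, and cAMP was read by TR-FRET. Data normalized to buffer (basal) and 29 nM porcine relaxin (100%).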
# TCR activator: activates T cell receptor signaling; primary human leukocytes, anti-CD3, IL-2 HTRF, 48 h; AID 504894; Potency, µM (series often up to 9.22 µM), usual class: activators; 330,000 tested, under 10 active
#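 Readout: HTRF IL-2, Eu-cryptate/d2 antibody pair, 320nm excitation, 665nm emission. Stimulus: a-CD3 beads, no co-stimulation. Cells: primary human leukocytes. Exposure: 48 hr with compound.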
# RXFP1 antag: antagonists of human relaxin receptor RXFP1; Q9HBX9; HEK293-RXFP1, relaxin-stimulated cAMP HTRF, 30 min; active compounds read low; activity change, negative = inhibition, % at 57.5 µM; 0.59% of 350,000 active; AID 1259400;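 active means activity change of -60% or lower, but not beyond a set lower limit; inconclusive means change between -60% and -40%, or beyond the set limit; inactive means change above -40%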
# PINK1 expr mod: modulators of PINK1 expression | AID 624263 | Potency, µM (top dose mostly 76.6 µM), usual class: activators | PINK1 immunofluorescence, high-content cytometry, 24 h | 0.2% of 410,000 active; active means well fitted activation curve with a large enough effect; inconclusive means small, poorly fitted or top-dose-only effect; cell line not stated here; further: nearly all actives have a fitted effect of over 65% in size
#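 PINK1 protein level read as immunofluorescence by microplate cytometer in a fixed, stained stable cell line after 24 h exposure to five compound concentrations, with CCCP as control.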
# A number is an active result; n = inactive; u = inconclusive; x = no result given. Only some compounds are listed: those with a hit (about 0.78% of all), similar ones and a draw of the others. Unless noted, the call rests on the fitted dose curve; in most records, active means well fitted curve in the direction sought with a large enough effect; inconclusive means small, poorly fitted or top-dose-only effect, or another doubt; inactive means no such curve, though single readings can be large; an effect the other way counts as inactive or inconclusive.
SMILES,IL2 activator,miR-21 FLuc,RXFP1 ag,TCR activator,RXFP1 antag,PINK1 expr mod
CSc1oc(-c2ccc(F)cc2)nc1S(=O)(=O)c1ccccc1,n,n,n,n,n,n
Cc1ccc(S(=O)(=O)c2nc(-c3cccs3)oc2SC(C)C)cc1,x,n,n,x,n,n
CC(C)S(=O)(=O)c1oc(-c2cccs2)nc1S(=O)(=O)c1ccc(F)cc1,x,u,n,x,-78.8,n
O=C1CC(c2ccc(Cl)cc2)CC(=O)N1,x,x,x,x,n,x
O=C(c1cncs1)N(Cc1cc2cc3c(cc2nc1N1CCOCC1)CCC3)CC1CCCO1 (stereo not given),x,x,x,x,x,n
COc1ccccc1CC(=O)Nc1ccc([N+](=O)[O-])cc1O,n,n,n,x,n,39.8µM
Cc1ccc(C)c(N2CCN(C(=O)C3CCCN(c4ncnc5c4nc4n5CCCCC4)C3)CC2)c1 (stereo not given),n,n,n,n,-83.0,n
Cc1ccc(N2CCN(C(=O)C3CCCN(c4ncnc5c4nc4n5CCCCC4)C3)CC2)c(C)c1 (stereo not given),n,n,n,n,n,n
CCC(C)(C)C1CCc2c(sc(NC(=O)c3ccccc3C(=O)O)c2C#N)C1 (stereo not given),n,n,n,n,-69.3,n
COc1ccccc1N1CCN(c2nc(CNC(=O)c3ccc(C)c(C)c3)nc3ccccc23)CC1,x,x,x,x,x,n
O=C(NCCc1ccccc1Cl)c1ccc(Cn2c(=O)c3cccn3c3cccnc32)cc1,x,n,22.4µM,x,n,n
CCCNC(=O)c1ccc(Cn2c(=O)c3cccn3c3cccnc32)cc1,x,n,n,x,n,n
Cn1cc(S(=O)(=O)N2CCCC2)cc1C(=O)NCc1ccccc1Cl,n,n,n,n,-72.5,n
COc1cccc(CNC(=O)c2cc(S(=O)(=O)N3CCOCC3)cn2C)c1,n,n,n,n,-82.0,n
COc1ccc(CNC(=O)c2cc(S(=O)(=O)N3CCOCC3)cn2C)cc1,n,n,n,n,n,n
COc1cc([C@@H]2[C@H]3CN(C)CC=C3C(C#N)=C(N)C2(C#N)C#N)cc2c1OCO2,n,n,n,n,n,17.8µM
COc1cccc(C2C3CN(C)CC=C3C(C#N)=C(N)C2(C#N)C#N)c1OC (stereo not given),n,n,n,n,n,35.5µM
CCOC(=O)N1CC=C2C(C#N)=C(N)C(C#N)(C#N)[C@H](c3ccsc3)[C@H]2C1,n,n,n,n,n,n
CN1CC=C2C(C#N)=C(N)C(C#N)(C#N)C(c3ccsc3)C2C1 (stereo not given),n,n,n,n,n,10µM
CN1CC=C2C(C#N)=C(N)C(C#N)(C#N)[C@H](c3cccc(Cl)c3)C2C1 (stereo not given in full),n,n,n,n,n,11.2µM
CN1CC=C2C(C#N)=C(N)C(C#N)(C#N)[C@H](c3cccs3)[C@H]2C1,n,n,n,n,n,u
Cc1cnc(CNC(=O)c2c3n(c(C)cc2=O)-c2ccccc2SC(c2ccsc2)C3)cn1 (stereo not given),x,x,x,x,x,n
COc1ccccc1C(=O)N[C@@H]1c2ccccc2C2(CCN(Cc3nccs3)CC2)[C@H]1OC,x,x,x,x,x,n
CCCC1C2CN(C(C)C)CC=C2C(C#N)=C(N)C1(C#N)C#N (stereo not given),n,n,n,n,n,10µM
Cc1nn(-c2ccccc2)c2ncc(C(=O)c3cc(Cl)ccc3O)cc12,n,n,n,n,n,28.2µM
CCc1cc(=O)n2c([nH]c3ccccc32)c1C#N,n,n,n,n,n,n
CCc1cc(=S)n2c([nH]c3ccccc32)c1C#N,n,n,n,n,n,15.8µM
COc1ccc2c(c1)OC(C)CN(CCNC(=O)c1cccc(N3CCNC3=O)c1)C2 (stereo not given),x,x,x,x,x,n
CC(=O)Nc1ccccc1-c1nc(CNC(=O)c2cccc(-n3cccn3)c2)c(C)o1,x,x,x,x,x,n
O=C(Nc1nc2c(F)cccc2s1)c1ccc(S(=O)(=O)N2CCCc3ccccc32)cc1,x,n,n,x,x,n
